Assay results from publication PMC6443995.

Target: Alexa Fluor 488-labeled human amidated neuropeptide Y (human) (UniProt P01303)

K M (μM) of the proteolytic cleavage of Alexa Fluor 488-labeled human amidated NPY (1–20 μM), 37 °C, 50 mM Tris/HCl pH 7.5 [μM]	Substance
15.9	human native transthyretin (TTR) purified from plasma (from UniProt P02766 21-147) (enzyme)
12.9	pigC/huTTR, human chimeric TTR in which the C-terminal sequence of human TTR was changed to that of Sus scrofa TTR (from UniProt P02766 21-140; P50390 141-150) (enzyme)
